Experimental data taken from patent publication US8906897B2, “Antimicrobial agents based on hemin derivatives” (Obschestvo S Ogranichennoi Otvetstvennostiyu …, priority 2009, dated 2014).

Test system: erythrocytes
Assay: Hemolytic activity (hemoglobin release from erythrocytes)
Type: cell-based
Details: human erythrocytes, 3 h
Method: Fresh human capillary blood was used in hemolytic activity studies. The hemolysis efficacy was determined as the hemoglobin release from erythrocytes in the RPMI-1640 medium (without Phenol Red and with addition of 10% fetal bovine serum and 20 mM L-glutamine) for an initial erythrocyte density of (1.0±0.1)×10^7 cells/mL after 3-h incubation with an agent (37° C., 5% CO2, 100% humidity, stirring on an orbital shaker).
The hemolytic activity was characterized by the hemoglobin fraction released from erythrocytes to the external medium. Erythrocytes, erythrocyte ghosts, and intermediate species containing unreleased hemoglobin were separated by centrifugation. Hemoglobin was quantified by the absorption of the supernatant at a wavelength of 414 nm (near the Soret band maximum for the heme).
Inasmuch as all tested compounds except for GrD absorb light at this wavelength, a correction for the absorption of each compound with account for its concentration was applied in calculating the hemoglobin release fraction. The percent hemoglobin release (HR) was calculated from the optical density (A) measured at a wavelength of 414 nm using the equation HR=[(Aei−Ae0)−(Ami−Am0)]×100/(Aet−Ae0), (2) […]
All samples (except for the positive control) were incubated for 3 h at 37° C., 5% CO2, 100% humidity, and under stirring at 150 rpm. […] The hemoglobin release was calculated from relationship (2).

Protohemin IX 6(7)-Mono(-Val-Gly-Ala-D-Leu-Ala-D-Val-Val-D-Val-Trp-D-Leu-X-D-Leu-Trp-D-Leu-Trp-NH—CH2CH2OH)amide [Compound XII]
concentration until which hemolytic activity is not manifested: 100 µM
